{"source": "PubChem BioAssay (Tox21)", "note": "Several values for one entry are separate records, joined by “and”; a condition that tells them apart may be missing. Equal values may be shown once. This is a selection; strong and weak results do not stand in their true shares. Inconclusive results are not listed. Activity calls are given as the source filed them. Calls follow the shape of the dose curve; as a rule, active = well fitted cell-killing curve with a large enough effect in the repeat runs; inconclusive = weak or mixed curves, or effect the other way; inactive = flat fitted curve, though single readings scatter. % is scaled to controls: 0 for no effect and ±100 for the full control effect."}
{"assay": "qHTS assay to identify small molecule antagonists of the constitutive androstane receptor (CAR) signaling pathway - cell viability counter screen (AID 1224837); also: nearly all actives have a fitted effect of over 45% in size", "details": "HepG2-CYP2B6-hCAR viability, CellTiter-Fluor, 23 h, co-treated with 50 nM CITCO; at 92.4 µM (top of the series) unless noted", "source_text": "(§1) National Center for Advancing Translational Sciences [NCATS]\n(§2) NIH Chemical Genomics Center [NCGC]\n(§3) U.S. Environmental Protection Agency [EPA]\n(§4) National Institutes of Environmental Health Sciences [NIEHS]\n(§5) National Toxicology Program [NTP]\n(§6) U.S. Food and Drug Administration [FDA]\n(§7) The constitutive androstane receptor (CAR) is a nuclear receptor which regulates multiple drug metabolizing enzymes (DMEs) and transporters. Activating CAR will generally increase the transcription and subsequent translation of CYP2B6 and CYP3A4. These two DMEs represent about 50% of the drug metabolizing potential in the body. When CAR is deactivated, the metabolizing potential in the body will decrease, subsequently increasing the toxicity in the body or lowering the therapeutic potential of a pro-drug. Recently, there have also been studies performed indicating CARs role in energy metabolism and cancer therapy. Therefore, inhibiting CARs activity could have a potential effect on diabetes and cancer. Identifying environmental toxins and compounds which modulate CAR, through the use of the Tox21 10K compound collection, will be an important step in determining the toxicity and potential therapeutic effects these factors will have on the human body. To differentiate true CAR antagonists from cytotoxic substances, the assay is multiplexed with a cell viability assay.\n(§8) Tox21 Assay Protocol Summary:\n(§9) A double-stable (hCAR and CYP2B6-2.2kb) transfected cell line, derived from human hepatoma (HepG2) cells, was utilized for the duration of the quantitative high-throughput screens. The HepG2-CYP2B6-hCAR cells were dispensed at 2500 cells/4 uL/well in 1536-well white solid bottom plates using a Multidrop Combi. After the assay plates were incubated at 37 C/5% CO2 for 4 hrs, 23 nL of compounds at 15 concentrations (from 5-48 columns) or positive control (from 1 to 4 columns) were transferred to the assay plates using a Pintool station. One uL of CITCO (final concentration = 50 nM) was added, using a Flying Reagent Dispenser, inside each well. After a 23 hr incubation period at 37 C/5% CO2, 1 uL of CellTiter-Fluor reagent was added into each well of the assay plates using a Flying Reagent Dispenser. The fluorescence intensity in the plates was then measured using a ViewLux plate reader."}
{"smiles": "CCOP(=O)(CC)Oc1ccc([N+](=O)[O-])cc1", "note": "(configuration not stated)", "activity change, negative = cytotoxicity": "inactive: -14.8% [at 42.5 µM]"}
{"smiles": "CCOP(=O)(CC)OCC", "activity change, negative = cytotoxicity": "inactive: 0.413%"}
{"smiles": "CC(C)OP(C)(=O)OC(C)C", "activity change, negative = cytotoxicity": "inactive: 0.447% and inactive: 1.19%"}
{"smiles": "O=[N+]([O-])c1cccc([N+](=O)[O-])c1", "activity change, negative = cytotoxicity": "inactive: -6.05%"}
{"smiles": "CCN(CC)CCCl", "activity change, negative = cytotoxicity": "inactive: 7.72%"}
{"smiles": "Cc1cccc([N+](=O)[O-])c1[N+](=O)[O-]", "activity change, negative = cytotoxicity": "inactive: -2.78% [at 42.5 µM]"}
{"smiles": "Cc1ccc([N+](=O)[O-])c([N+](=O)[O-])c1", "activity change, negative = cytotoxicity": "inactive: -8.32%"}
{"smiles": "O=[N+]([O-])OCC(CO[N+](=O)[O-])(CO[N+](=O)[O-])CO[N+](=O)[O-]", "activity change, negative = cytotoxicity": "inactive: 0.242%"}
{"smiles": "O=[N+]([O-])[O-].[NH4+]", "activity change, negative = cytotoxicity": "inactive: 0.494% and inactive: 3.61%"}
{"smiles": "N#CBr", "activity change, negative = cytotoxicity": "inactive: 5.01%"}
{"smiles": "C/C1=C2N=C(/C=C3N=C(/C(C)=C4\\[N-][C@@](C)([C@@H]5N=C1[C@](C)(CCC(=O)NC[C@@H](C)OP(=O)([O-])O[C@H]1[C@@H](O)[C@@H](n6cnc7cc(C)c(C)cc76)O[C@@H]1CO)[C@H]5CC(N)=O)[C@@](C)(CC(N)=O)[C@@H]4CCC(N)=O)[C@@](C)(CC(N)=O)[C@@H]\\3CCC(N)=O)C(C)(C)[C@@H]/2CCC(N)=O.[C-]#N.[Co+3]", "activity change, negative = cytotoxicity": "inactive: -20.3% [at 42.5 µM]"}
{"smiles": "N=C(N)N[N+](=O)[O-]", "activity change, negative = cytotoxicity": "inactive: 3%"}
{"smiles": "[NH4+].[O-][Cl+3]([O-])([O-])[O-]", "activity change, negative = cytotoxicity": "inactive: 3.13% and inactive: 1.22%"}
{"smiles": "COc1ccc([N+](=O)[O-])cc1[N+](=O)[O-]", "activity change, negative = cytotoxicity": "inactive: 0.542%"}
{"smiles": "CN(C)CCCl", "activity change, negative = cytotoxicity": "inactive: -5.05%"}
{"smiles": "Cc1c([N+](=O)[O-])cccc1[N+](=O)[O-]", "activity change, negative = cytotoxicity": "inactive: 4.25% and inactive: -2.54%"}
{"smiles": "Cc1ccc([N+](=O)[O-])cc1[N+](=O)[O-]", "activity change, negative = cytotoxicity": "inactive: -0.297% and inactive: 2.43%"}
{"smiles": "CC(C)N(CCO)C(C)C", "activity change, negative = cytotoxicity": "inactive: 4.02%"}
{"smiles": "CP(=O)(O)OCCC[Si](O)(O)O", "activity change, negative = cytotoxicity": "inactive: 6.65%"}
{"smiles": "COP(C)(=O)OC", "activity change, negative = cytotoxicity": "inactive: -2.15% and inactive: -6.06%"}
{"assay": "qHTS assay to identify small molecule antagonists of the constitutive androstane receptor (CAR) signaling pathway - cell viability counter screen (AID 1224837); also: nearly all actives have a fitted effect of over 45% in size", "details": "HepG2-CYP2B6-hCAR viability, CellTiter-Fluor, 23 h; at 42.5 µM (top of the series); co-treated with 50 nM CITCO", "source_text": "as §1, §2, §3, §4, §5, §6, §7, §8, §9"}
{"smiles": "OCCSCCO", "activity change, negative = cytotoxicity": "inactive: 6.26%"}
{"assay": "qHTS assay to identify small molecule antagonists of the constitutive androstane receptor (CAR) signaling pathway - cell viability counter screen (AID 1224837); also: nearly all actives have a fitted effect of over 45% in size", "details": "HepG2-CYP2B6-hCAR viability, CellTiter-Fluor, 23 h; at 92.4 µM (top of the series); co-treated with 50 nM CITCO", "source_text": "as §1, §2, §3, §4, §5, §6, §7, §8, §9"}
{"smiles": "OCCSCCO", "activity change, negative = cytotoxicity": "inactive: 1.14%"}
